ChEMBL document CHEMBL1139387, “Fragment-based discovery of the pyrazol-4-yl urea (AT9283), a multitargeted kinase inhibitor with potent aurora kinase activity” (J Med Chem, 2009)

Target: T1, Aurora kinase A (Homo sapiens, UniProt O14965)
T1 sequence (O14965 whole entry): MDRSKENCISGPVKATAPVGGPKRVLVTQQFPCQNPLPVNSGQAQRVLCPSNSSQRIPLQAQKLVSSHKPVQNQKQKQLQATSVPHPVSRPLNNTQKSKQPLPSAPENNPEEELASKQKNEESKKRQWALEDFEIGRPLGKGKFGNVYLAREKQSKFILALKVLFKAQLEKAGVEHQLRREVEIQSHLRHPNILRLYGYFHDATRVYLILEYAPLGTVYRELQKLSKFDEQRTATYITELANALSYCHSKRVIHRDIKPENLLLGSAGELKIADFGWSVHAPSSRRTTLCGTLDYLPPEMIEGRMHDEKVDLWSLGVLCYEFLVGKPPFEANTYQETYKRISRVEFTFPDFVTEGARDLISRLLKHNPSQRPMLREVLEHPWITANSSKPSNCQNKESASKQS

Row | IC50 [nM] | SMILES
1 | 10 | O=C(Nc1c[nH]nc1-c1nc2ccc(CN3CCOCC3)cc2[nH]1)c1ccc(F)cc1
2 | 5.9 | O=C(Nc1c[nH]nc1-c1nc2ccccc2[nH]1)c1ccccc1
